{"source": "patent US6858402B2", "about": "(The Regents of the University of California, priority 1996, dated 2005)", "tested_on": "Meth A tumors", "assay": "Necrotizing activity of human TNF on Meth A tumors in vivo", "design": "species or system BALB/c mice", "details": "Group 1: TNF 1 μg/mouse intravenously, Day 8", "protocol": "Generally, on Day 0, cutaneous Meth A tumors were produced on the abdominal wall of fifteen BALB/c mice by intradermal injection of 2×20^5 Meth A tumor cells.\nOn Day 8, tumor necrosis was measured with the following results: […]"}
{"substance": "TNF: recombinant human tumor necrosis factor provided by Synergen Inc.", "values": [{"measurement": "% of necrosis", "value": "100 (5/5) %"}]}
